Target: T1, Histone deacetylase 8 (Homo sapiens, UniProt Q9BY41)
T1 sequence (Q9BY41 whole entry): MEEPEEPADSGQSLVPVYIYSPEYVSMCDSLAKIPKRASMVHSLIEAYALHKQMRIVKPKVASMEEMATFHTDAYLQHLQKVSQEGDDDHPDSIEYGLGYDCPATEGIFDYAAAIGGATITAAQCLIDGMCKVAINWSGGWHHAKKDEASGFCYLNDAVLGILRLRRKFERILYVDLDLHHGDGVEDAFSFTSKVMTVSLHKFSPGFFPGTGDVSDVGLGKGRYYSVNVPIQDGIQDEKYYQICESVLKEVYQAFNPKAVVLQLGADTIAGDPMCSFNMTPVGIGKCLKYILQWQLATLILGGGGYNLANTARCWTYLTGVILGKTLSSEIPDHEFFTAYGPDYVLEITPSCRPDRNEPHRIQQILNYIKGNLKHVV

With O=C(CCCCCCC(=O)Nc1ccccc1)NO [VORINOSTAT] the IC50 was 5.85 µM.

Source: ChEMBL document CHEMBL6083289, “Deciphering the Therapeutic Potential of Novel Pentyloxyamide-Based Class I, IIb HDAC Inhibitors against Therapy-Resistant Leukemia” (J Med Chem, 2024)
